This is an account of results in PMC3942692, “Mitochondrial FAD-linked Glycerol-3-phosphate Dehydrogenase: A Target for Cancer Therapeutics” (Pharmaceuticals, 2014).

Chains of the proteins cited; added tags and fusions are not shown. Residues count along the entry.
UniProt P43304, 43-727 limits assumed: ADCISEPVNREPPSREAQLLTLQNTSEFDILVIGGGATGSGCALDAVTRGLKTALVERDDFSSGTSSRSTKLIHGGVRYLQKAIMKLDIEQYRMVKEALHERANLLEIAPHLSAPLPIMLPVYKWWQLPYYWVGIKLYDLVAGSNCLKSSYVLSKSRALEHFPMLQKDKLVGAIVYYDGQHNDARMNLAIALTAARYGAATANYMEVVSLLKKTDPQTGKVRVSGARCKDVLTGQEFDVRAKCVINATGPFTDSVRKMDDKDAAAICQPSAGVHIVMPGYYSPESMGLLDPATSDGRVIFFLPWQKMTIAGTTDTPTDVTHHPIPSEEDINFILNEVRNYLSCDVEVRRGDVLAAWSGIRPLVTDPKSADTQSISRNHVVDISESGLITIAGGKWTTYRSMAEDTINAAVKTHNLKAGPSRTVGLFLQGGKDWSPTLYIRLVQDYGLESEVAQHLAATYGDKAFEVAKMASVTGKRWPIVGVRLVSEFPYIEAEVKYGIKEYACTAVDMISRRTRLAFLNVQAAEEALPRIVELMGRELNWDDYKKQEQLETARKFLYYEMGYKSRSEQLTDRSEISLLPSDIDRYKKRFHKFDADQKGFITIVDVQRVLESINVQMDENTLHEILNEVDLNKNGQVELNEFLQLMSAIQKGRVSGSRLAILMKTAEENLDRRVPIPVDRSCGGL

In the test the target is GPD2 (mitochondrial glycerol-3-phosphate dehydrogenase) (Homo sapiens, UniProt P43304). The test is described as follows: GPD2 oxidoreductase, resazurin reduction fluorescence. The conditions noted are these: 30 mM glycerol-3-phosphate. The text has this: GPD2 oxidoreductase, resazurin reduction fluorescence on GPD2 (mitochondrial glycerol-3-phosphate dehydrogenase) | six GPD2 activity inhibitors selected for follow-up analysis are shown
On the technique in general: Resazurin is reduced to fluorescent resorufin, in cell work by metabolically active cells.

As to `O=[N+]([O-])c1ccc(Oc2ccccc2O)c2c1no[n+]2[O-]`, the EC50 – broadly, the concentration giving half of the maximal effect – is 13.3 µM.
In turn, `O=Cc1cc(N=Nc2cccc(Cl)c2)ccc1O` registered a concentration for a half-maximal effect (EC50) of 8.6 µM.
